Laboratory results reported in ChEMBL document CHEMBL5335800, “Focused Screening Identifies Different Sensitivities of Human TET Oxygenases to the Oncometabolite 2-Hydroxyglutarate” (J Med Chem, 2024).

Chains of the proteins cited; added tags and fusions are not shown. Lines headed by an entry give the natural chain unless they say otherwise; changes in a name come on top.
UniProt Q3URK3: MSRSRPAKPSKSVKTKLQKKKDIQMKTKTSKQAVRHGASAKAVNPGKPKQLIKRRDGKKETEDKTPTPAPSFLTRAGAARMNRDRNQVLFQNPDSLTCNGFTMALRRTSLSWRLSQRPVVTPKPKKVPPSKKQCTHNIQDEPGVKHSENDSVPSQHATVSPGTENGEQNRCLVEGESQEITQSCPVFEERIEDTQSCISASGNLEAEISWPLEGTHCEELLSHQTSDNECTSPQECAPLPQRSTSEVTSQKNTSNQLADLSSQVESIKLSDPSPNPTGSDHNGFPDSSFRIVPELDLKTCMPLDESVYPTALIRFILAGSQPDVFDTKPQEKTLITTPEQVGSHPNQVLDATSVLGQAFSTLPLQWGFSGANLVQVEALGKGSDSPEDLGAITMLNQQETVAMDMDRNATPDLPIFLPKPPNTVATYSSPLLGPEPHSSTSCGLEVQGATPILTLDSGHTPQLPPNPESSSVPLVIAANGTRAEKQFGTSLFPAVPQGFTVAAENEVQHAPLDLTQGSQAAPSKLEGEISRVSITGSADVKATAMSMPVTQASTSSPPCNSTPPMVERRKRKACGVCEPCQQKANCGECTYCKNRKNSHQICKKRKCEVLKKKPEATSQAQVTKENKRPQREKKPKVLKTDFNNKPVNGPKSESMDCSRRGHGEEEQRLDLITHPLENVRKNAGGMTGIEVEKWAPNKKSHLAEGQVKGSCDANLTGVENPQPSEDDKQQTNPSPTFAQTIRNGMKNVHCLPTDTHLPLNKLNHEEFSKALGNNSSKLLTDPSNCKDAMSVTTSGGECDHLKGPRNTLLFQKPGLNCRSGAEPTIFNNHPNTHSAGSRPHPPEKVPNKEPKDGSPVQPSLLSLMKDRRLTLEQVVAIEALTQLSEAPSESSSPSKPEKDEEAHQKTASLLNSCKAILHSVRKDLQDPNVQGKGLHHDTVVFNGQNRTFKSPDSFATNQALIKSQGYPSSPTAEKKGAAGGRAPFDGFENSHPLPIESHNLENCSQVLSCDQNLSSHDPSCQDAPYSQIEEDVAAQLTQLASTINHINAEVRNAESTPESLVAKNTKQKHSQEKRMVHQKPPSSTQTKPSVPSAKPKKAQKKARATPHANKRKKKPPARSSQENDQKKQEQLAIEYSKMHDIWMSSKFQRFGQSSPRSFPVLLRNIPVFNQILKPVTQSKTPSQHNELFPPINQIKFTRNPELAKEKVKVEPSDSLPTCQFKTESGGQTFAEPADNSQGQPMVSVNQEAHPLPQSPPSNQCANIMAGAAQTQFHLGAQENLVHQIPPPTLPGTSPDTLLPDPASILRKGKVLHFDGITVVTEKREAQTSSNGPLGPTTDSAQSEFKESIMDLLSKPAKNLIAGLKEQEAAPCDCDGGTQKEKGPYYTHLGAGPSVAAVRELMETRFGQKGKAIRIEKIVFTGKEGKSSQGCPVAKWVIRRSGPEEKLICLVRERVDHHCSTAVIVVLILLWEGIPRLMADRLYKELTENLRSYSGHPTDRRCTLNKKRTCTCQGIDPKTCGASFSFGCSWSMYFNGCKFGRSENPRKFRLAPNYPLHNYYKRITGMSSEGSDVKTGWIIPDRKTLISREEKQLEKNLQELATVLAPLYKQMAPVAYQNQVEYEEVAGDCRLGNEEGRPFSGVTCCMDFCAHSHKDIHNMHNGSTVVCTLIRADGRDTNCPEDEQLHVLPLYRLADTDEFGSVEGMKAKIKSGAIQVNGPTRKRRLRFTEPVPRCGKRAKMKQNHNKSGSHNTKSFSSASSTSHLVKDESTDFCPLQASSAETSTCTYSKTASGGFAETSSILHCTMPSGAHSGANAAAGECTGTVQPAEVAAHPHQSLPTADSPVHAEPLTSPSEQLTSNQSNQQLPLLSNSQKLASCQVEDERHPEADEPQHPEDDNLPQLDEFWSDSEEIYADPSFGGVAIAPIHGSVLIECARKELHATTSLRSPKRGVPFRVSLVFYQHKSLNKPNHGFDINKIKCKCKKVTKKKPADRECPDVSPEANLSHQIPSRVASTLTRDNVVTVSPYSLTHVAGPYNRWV

Columns and labels:
[1] = molecular target: T1, Methylcytosine dioxygenase TET2 (Homo sapiens, UniProt Q6N021); assay: biochemical
[2] = molecular target: T1, Methylcytosine dioxygenase TET2; settings: sf9
[3] = molecular target: Methylcytosine dioxygenase TET1 (Mus musculus, UniProt Q3URK3)

Row | IC50 [1] | IC50 [2] | Compound | IC50 [3]
1 | ≥ 100 µM | ≥ 100 µM | Cc1nc(C(=O)NCC(=O)O)c(O)c2ccc(Oc3ccccc3)cc12 [ROXADUSTAT] | 
2 |  |  | O=C(O)CC[C@@H](O)C(=O)O | 4000 µM
